The conditions of the data set: in vivo, 50 mg.

For `C[C@H]1[C@H](C)CC[C@]2(C(=O)O)CC[C@]3(C)C(=CC[C@@H]4[C@@]5(C)C[C@@H](O)[C@H](O)[C@@](C)(CO)[C@@H]5CC[C@]43C)[C@H]12.NC(CO)(CO)CO` [amorphous asiatic tromethamine salt], the bioavailability result was “ca. 10.4%”.

The record behind these values is patent US8962880B2, “Amorphous asiatic tromethamine salt and preparation method thereof” (Shanghai Institute of Pharmaceutical Industry, priority 2011, dated 2015).
